Like-named read-outs stand apart in the source and are kept apart here.
Legend:
[1] = target: T1, human plasmin (Homo sapiens, UniProt P00747); experiment: Anti-plasmin activity: inhibition of S-2251 degradation; assay type: biochemical; details: read-out: Plasmin S-2251 (I50), substrate S-2251, 37°C, pH7.4
[2] = target: human plasma kallikrein (Homo sapiens, UniProt P03952); experiment: Anti-plasma kallikrein activity: inhibition of S-2302 degradation; assay type: biochemical; details: read-out: Plasma kallikrein S-2302 (I50); substrate S-2302, 37°C, pH 7.8; tested form: HCl
[3] = target: Trypsin (Bos taurus, UniProt P00760); experiment: Anti-trypsin activity (S-2238); assay type: biochemical; details: read-out: Trypsin S-2238 (I50), substrate S-2238
[4] = test system: experimental pancreatitis; experiment: Effect on experimental pancreatitis (sodium taurochorate + trypsin into the common bile duct), survival ratio; set-up: Effect on experimental pancreatitis (100 mg/kg p.o.) After 24 hours / Effect on experimental pancreatitis (100 mg/kg p.o.) After 48 hours: unit not given here; details: rat; for Effect on experimental pancreatitis Survival ratio(%) After 24 hours / Effect on experimental pancreatitis Survival ratio(%) After 48 hours: 80 μg/kg/min. x 80 min. continuous infusion
[5] = target: T1, human plasmin; experiment: Anti-plasmin activity: inhibition of fibrinolysis (fibrin clot lysis time); assay type: biochemical; details: read-out: Plasmin Fibrin (I50), concentration giving a fibrin clot lysis time twice that of control, 37°C, pH7.4
[6] = test system: ICR male mice; details: intravenous, up-and-down method
[7] = target: human urokinase (Homo sapiens, UniProt P00749); experiment: Anti-urokinase activity: inhibition of S-2444 degradation; assay type: biochemical; details: read-out: Urokinase S-2444 (I50); substrate S-2444, 37°C, pH 8.8; tested form: HCl
Protocol: 3) Assay of anti-urokinase activity Assay method of inhibition of S-2444 degradation
The test substance was dissolved in a 0.05 M Tris-HC1 (pH 8.8) buffer to make a total volume of 400 µl, and 50 µl of a 1 mM S-2444 solution was added to the mixture. After incubation at 37°C for 5 minutes in an incubator, an addition of 50 µl of 500 units/ml human urokinase solution, and incubation at 37°C for 5 minutes, the reaction was terminated by an addition of 50 µl of 50% acetic acid.

Chains of the proteins cited; added tags and fusions are not shown. Residues count along the entry.
UniProt P00747, 581-810 limits assumed: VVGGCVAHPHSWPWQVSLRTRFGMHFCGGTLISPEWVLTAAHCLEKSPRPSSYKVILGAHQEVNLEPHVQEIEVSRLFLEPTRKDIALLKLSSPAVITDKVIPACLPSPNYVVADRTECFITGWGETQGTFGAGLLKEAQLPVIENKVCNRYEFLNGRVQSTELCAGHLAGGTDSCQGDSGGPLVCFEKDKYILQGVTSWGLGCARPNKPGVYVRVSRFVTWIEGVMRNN
UniProt P00747, 97-580 partner limits assumed: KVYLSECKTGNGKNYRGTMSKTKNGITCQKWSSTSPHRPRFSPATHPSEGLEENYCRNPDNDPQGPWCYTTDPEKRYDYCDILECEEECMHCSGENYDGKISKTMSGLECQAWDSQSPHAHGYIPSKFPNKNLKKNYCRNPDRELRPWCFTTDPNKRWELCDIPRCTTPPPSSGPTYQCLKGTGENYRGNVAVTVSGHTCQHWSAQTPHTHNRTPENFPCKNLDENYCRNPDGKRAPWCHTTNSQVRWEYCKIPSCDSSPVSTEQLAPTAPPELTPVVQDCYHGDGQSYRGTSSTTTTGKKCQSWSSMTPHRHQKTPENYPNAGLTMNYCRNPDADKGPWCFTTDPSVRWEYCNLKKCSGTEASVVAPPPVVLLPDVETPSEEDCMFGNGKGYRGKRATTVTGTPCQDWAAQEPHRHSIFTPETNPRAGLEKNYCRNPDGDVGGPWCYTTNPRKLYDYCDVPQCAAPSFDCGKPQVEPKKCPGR
UniProt P03952, 391-638 limits assumed: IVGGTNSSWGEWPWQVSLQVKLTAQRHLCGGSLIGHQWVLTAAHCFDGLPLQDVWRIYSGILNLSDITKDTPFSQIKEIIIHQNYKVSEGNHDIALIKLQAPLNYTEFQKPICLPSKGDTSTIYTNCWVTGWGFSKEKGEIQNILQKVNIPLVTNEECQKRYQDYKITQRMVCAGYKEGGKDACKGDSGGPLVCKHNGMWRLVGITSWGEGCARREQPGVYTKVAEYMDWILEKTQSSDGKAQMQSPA
UniProt P03952, 20-390 partner limits assumed: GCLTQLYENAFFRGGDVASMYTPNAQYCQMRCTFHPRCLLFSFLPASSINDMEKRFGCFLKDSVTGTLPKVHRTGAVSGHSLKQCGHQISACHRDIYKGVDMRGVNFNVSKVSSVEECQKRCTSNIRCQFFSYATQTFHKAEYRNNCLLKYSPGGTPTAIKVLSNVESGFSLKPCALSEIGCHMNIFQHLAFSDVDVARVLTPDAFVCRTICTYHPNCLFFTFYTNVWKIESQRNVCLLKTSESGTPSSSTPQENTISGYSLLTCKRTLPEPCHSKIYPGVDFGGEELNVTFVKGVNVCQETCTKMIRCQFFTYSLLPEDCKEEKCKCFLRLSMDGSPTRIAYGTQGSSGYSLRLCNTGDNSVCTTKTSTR
UniProt P00760, 24-246 limits assumed: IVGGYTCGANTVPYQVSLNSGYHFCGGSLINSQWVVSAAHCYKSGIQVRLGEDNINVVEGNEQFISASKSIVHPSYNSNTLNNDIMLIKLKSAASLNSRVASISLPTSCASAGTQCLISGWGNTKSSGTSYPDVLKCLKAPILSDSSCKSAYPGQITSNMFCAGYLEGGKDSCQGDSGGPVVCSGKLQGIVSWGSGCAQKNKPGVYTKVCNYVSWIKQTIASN
UniProt P00743, 234-492 limits assumed: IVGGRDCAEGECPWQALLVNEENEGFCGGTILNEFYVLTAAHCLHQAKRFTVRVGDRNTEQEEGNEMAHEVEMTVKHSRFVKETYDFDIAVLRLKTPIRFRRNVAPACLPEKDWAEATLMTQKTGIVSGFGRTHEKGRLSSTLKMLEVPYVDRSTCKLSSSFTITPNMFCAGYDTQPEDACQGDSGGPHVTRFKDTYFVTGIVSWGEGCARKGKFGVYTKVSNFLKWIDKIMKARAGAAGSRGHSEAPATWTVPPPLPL
UniProt P00743, 41-180 partner limits assumed: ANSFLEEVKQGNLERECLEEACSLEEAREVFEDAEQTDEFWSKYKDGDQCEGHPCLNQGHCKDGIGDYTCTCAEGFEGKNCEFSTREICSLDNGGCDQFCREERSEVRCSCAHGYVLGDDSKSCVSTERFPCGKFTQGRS

[8] = target: bovine factor Xa (Bos taurus, UniProt P00743); experiment: Anti-FXa activity: inhibition of S-2222 degradation; assay type: biochemical; details: read-out: FXa S-2222 (I50); substrate S-2222, 37°C, pH 8.3; tested form: 2HCl
Protocol: 4) Assay of anti-FXa activity Assay method of inhibition of S-2222 degradation
To 0.4 ml of the test substance dissolved in a 0.05 M Tris-HC1 (pH 8.3) buffer is added 0.05 ml of 3 mM S-2222 solution, and after incubation at 37°C for about 4 minutes, an addition of 0.05 ml of 0.3 vial/ml bovine factor Xa, and a reaction at 37°C for 4 minutes, the - reaction was terminated by adding 0.05 ml of 50% acetic acid.

[9] = after 24 hours, tested form: 2HCl
[10] = after 48 hours, tested form: 2HCl

| Structure (SMILES) | IC50 ([1]; tested form: HCl) [µM] | IC50 [2] [µM] | IC50 ([3]; tested form: HCl) [µM] | Effect on experimental pancreatitis Survival ratio(%) After 24 hours ([4]; after 24 hours, tested form: HCl) [%] | Effect on experimental pancreatitis Survival ratio(%) After 48 hours ([4]; after 48 hours, tested form: HCl) [%] | IC50 ([5]; tested form: HCl) [µM] | Acute toxicity (LD50) ([6]; tested form: HCl) [mg/kg] | IC50 [7] [µM] | IC50 ([1]; tested form: 2HCl) [µM] | IC50 ([3]; tested form: 2HCl) [µM] | IC50 [8] [µM] | Effect on experimental pancreatitis Survival ratio(%) After 24 hours [4, 9] [%] | Effect on experimental pancreatitis Survival ratio(%) After 48 hours [4, 10] [%] | Effect on experimental pancreatitis (100 mg/kg p.o.) After 24 hours ([4]; survival ratio, 100 mg/kg p.o. 30 minutes before pancreatitis, after 24 hours, tested form: 2HCl) | Effect on experimental pancreatitis (100 mg/kg p.o.) After 48 hours ([4]; survival ratio, 100 mg/kg p.o. 30 minutes before pancreatitis, after 48 hours, tested form: 2HCl) | IC50 ([5]; tested form: 2HCl) [µM] | Acute toxicity (LD50) ([6]; tested form: 2HCl) [mg/kg] |
| --- | --- | --- | --- | --- | --- | --- | --- | --- | --- | --- | --- | --- | --- | --- | --- | --- | --- |
| NCC1CCC(C(=O)N[C@@H](Cc2ccc(OCc3ccccc3)cc2)C(=O)Nc2cccc(CC(=O)O)c2)CC1 (stereo partly shown) | 36 | 3.6 | 14 | 41.7 | 33.3 | 31 | >100 | > 500 | – | – | – | – | – | – | – | – | – |
| CC(=O)c1ccc(NC(=O)[C@H](Cc2ccc(Oc3ccc([N+](=O)[O-])cn3)cc2)NC(=O)C2CCC(CN)CC2)cc1 (stereo partly shown) | – | – | – | – | – | – | – | – | 1 | 0.2 | 27 | 66.7 | 58.3 | 76.9 | 53.8 | 0.4 | 60 |
| CC(=O)c1ccc(NC(=O)[C@H](Cc2ccc(OCc3ccncc3)cc2)NC(=O)C2CCC(CN)CC2)cc1 (stereo partly shown) | – | – | – | – | – | – | – | – | – | – | 65 | 43.3 | 26.7 | – | – | 0.7 | 50 |

Reference: EP0369035A1, “AGENT FOR TREATING PANCREATITIS OR THE LIKE” (priority 1988, dated 1989)
